Source: ChEMBL document CHEMBL5625274, “Improved synthesis, molecular modeling and anti-inflammatory activity of new fluorinated dihydrofurano-naphthoquinone compounds” (Bioorg Med Chem Lett, 2024)

Key:
[1] = system: RAW264.7; assay: Antiinflammatory activity in LPS activated mouse RAW264.7 cells assessed as reduction in IL-1beta level; type: functional, cell-based; details: dose 2-8 µg/ml
[2] = system: RAW264.7; assay: Antiinflammatory activity in LPS activated mouse RAW264.7 cells assessed as reduction in IL-6 level; type: functional, cell-based; details: dose 2-8 µg/ml

Row | Compound | Activity [1] | Activity [2]
1 | COc1c(F)cc([C@@H]2C3=C(O[C@H]2C(=O)c2ccccc2)C(=O)c2ccccc2C3=O)cc1F | Dose-Dependent Effect | Dose-Dependent Effect
2 | O=C1C2=C(C(=O)c3ccccc31)[C@@H](c1ccc(F)cc1)[C@H](C(=O)c1ccccc1)O2 | Dose-Dependent Effect | Dose-Dependent Effect
3 | COc1ccc([C@@H]2C3=C(O[C@H]2C(=O)c2ccccc2)C(=O)c2ccccc2C3=O)cc1F | Dose-Dependent Effect | Dose-Dependent Effect
4 | COc1cc(F)c([C@@H]2C3=C(O[C@H]2C(=O)c2ccccc2)C(=O)c2ccccc2C3=O)cc1F | Dose-Dependent Effect | Dose-Dependent Effect
